Assay results: US7157486B2, “Viral polymerase inhibitors” (Boehringer Ingelheim (Canada) Ltd., priority 2001, dated 2007)

These molecules were tested against hepatitis C virus RNA dependant polymerase (NS5B) (Hepatitis C virus genotype 1b, UniProt P26663) (assay: biochemical). Details: not given.
In the case of `Cn1c(-c2nccs2)c(C2CCCC2)c2ccc(C(=O)O)cc21` [compound 129], the IC50 is reported as 500 to 1000 nM. In the case of `Cn1c(-c2ccc(N)cc2)c(C2CCCC2)c2ccc(C(=O)O)cc21` [compound 131], the IC50 is reported as 500 to 1000 nM. For `Cn1c(-c2ccoc2)c(C2CCCC2)c2ccc(C(=O)O)cc21` [compound 111], the IC50 was less than 500 nM. `Cn1c(-c2ccccn2)c(C2CCCCC2)c2ccc(C(=O)O)cc21` [compound 106] was tested, and the IC50 was 500 to 1000 nM. `Cn1c(-c2ccccc2)c(C2CCCCC2)c2ccc(C(=O)O)nc21` [compound 201, 3-Cyclohexyl-1-methyl-2-phenyl-1H-pyrrolo[2,3,b]pyridine-6-carboxylic acid] gave an IC50 greater than 1000 nM. With `Cn1c(-c2cnco2)c(C2CCCC2)c2ccc(C(=O)O)cc21` [compound 128] the IC50 was less than 500 nM. With `Cn1c(-c2ccccc2)c(C2CCCCC2)c2ccc(C(=O)O)cc21` [compound 101] the IC50 was greater than 1000 nM. `O=C(O)c1ccc2c(C3CCCCC3)c(-c3ccoc3)[nH]c2c1` [compound 102] gave an IC50 greater than 1000 nM. `Cn1c(-c2ccc(F)cn2)c(C2CCCC2)c2ccc(C(=O)O)cc21` [compound 148] showed an IC50 of 500 to 1000 nM. For `Cc1ccc(-c2c(C3CCCC3)c3ccc(C(=O)O)cc3n2C)cn1` [compound 134], the IC50 was 500 to 1000 nM. For `COc1ccc(-c2c(C3CCCC3)c3ccc(C(=O)O)cc3n2C)nc1` [compound 147], the IC50 was greater than 1000 nM. `COCCNc1nc(-c2c(C3CCCC3)c3ccc(C(=O)O)cc3n2C)cs1` [compound 123] was tested, and the IC50 was less than 500 nM. With `O=C(O)c1ccc2c(C3CCCCC3)c(Br)[nH]c2c1` [compound 105] the IC50 was greater than 1000 nM. `Cn1c(-c2cscn2)c(C2CCCC2)c2ccc(C(=O)O)cc21` [compound 117] showed an IC50 of less than 500 nM. `CNc1nc(-c2c(C3CCCC3)c3ccc(C(=O)O)cc3n2C)cs1` [compound 119] was tested, and the IC50 was 500 to 1000 nM. With `Cn1c(-c2csc(NC(=O)CC(C)(C)C)n2)c(C2CCCC2)c2ccc(C(=O)O)cc21` [compound 125] the IC50 was greater than 1000 nM. Molecule `CCNc1nc(-c2c(C3CCCC3)c3ccc(C(=O)O)cc3n2C)cs1` [compound 120] has an IC50 greater than 1000 nM. For `Cn1c(-c2ccoc2)c(C2CCCCC2)c2ccc(C(=O)O)cc21` [compound 107], the IC50 was 500 to 1000 nM. `CC(=O)Nc1nc(-c2c(C3CCCC3)c3ccc(C(=O)O)cc3n2C)cs1` [compound 118] gave an IC50 of less than 500 nM. `CN(C)CCNc1nc(-c2c(C3CCCC3)c3ccc(C(=O)O)cc3n2C)cs1` [compound 127] was tested, and the IC50 was less than 500 nM. `Cn1c(-c2ccoc2)c(C2CCCCC2)c2ccc(C(=O)O)nc21` [compound 202] showed an IC50 greater than 1000 nM. With `Cc1nc(-c2c(C3CCCC3)c3ccc(C(=O)O)cc3n2C)cs1` [compound 121] the IC50 was 500 to 1000 nM. `Cc1cccc(-c2c(C3CCCC3)c3ccc(C(=O)O)cc3n2C)n1` [compound 133] showed an IC50 of 500 to 1000 nM. `CCCNc1nc(-c2c(C3CCCC3)c3ccc(C(=O)O)cc3n2C)cs1` [compound 122] was tested, and the IC50 was greater than 1000 nM. With `O=C(O)Cn1c(-c2ccc(Br)cn2)c(C2CCCCC2)c2ccc(C(=O)O)cc21` [compound 149] the IC50 was 500 to 1000 nM. `Cn1c(-c2cnccn2)c(C2CCCCC2)c2ccc(C(=O)O)cc21` [compound 109] was tested, and the IC50 was less than 500 nM. `O=C(O)c1ccc2c(C3CCCC3)c(-c3ccoc3)[nH]c2c1` [compound 110] showed an IC50 of less than 500 nM. Work on `Cn1c(-c2csc(NC(=O)C(C)(C)C)n2)c(C2CCCC2)c2ccc(C(=O)O)cc21` [compound 126] yielded an IC50 greater than 1000 nM. For `Cn1c(-c2csc(N)n2)c(C2CCCCC2)c2ccc(C(=O)O)cc21` [compound 139], the IC50 was less than 500 nM. With `Cn1c(-c2cccc(N)c2)c(C2CCCC2)c2ccc(C(=O)O)cc21` [compound 130] the IC50 was greater than 1000 nM. `O=C(O)c1ccc2c(C3CCCCC3)c(-c3ccccn3)[nH]c2c1` [compound 142] was tested, and the IC50 was greater than 1000 nM. `Cn1c(-c2cccc(N)n2)c(C2CCCCC2)c2ccc(C(=O)O)cc21` [compound 112] gave an IC50 of less than 500 nM. Molecule `Cn1c(-c2ccsc2)c(C2CCCC2)c2ccc(C(=O)O)cc21` [compound 132] has an IC50 of less than 500 nM. `Cc1ccc(-c2c(C3CCCCC3)c3ccc(C(=O)O)cc3n2C)nc1` [compound 108] showed an IC50 of 500 to 1000 nM. In the case of `Cn1c(-c2cnccn2)c(C2CCCC2)c2ccc(C(=O)O)cc21` [compound 135], the IC50 is reported as less than 500 nM. `Cn1c(-c2ccc([N+](=O)[O-])cn2)c(C2CCCC2)c2ccc(C(=O)O)cc21` [compound 137] was tested, and the IC50 was 500 to 1000 nM. Molecule `Cn1c(-c2ccccn2)c(C2CCCC2)c2ccc(C(=O)O)cc21` [compound 115] has an IC50 of 500 to 1000 nM. `O=C(O)c1ccc2c(C3CCCC3)c(-c3ccccn3)sc2c1` [compound 138] gave an IC50 greater than 1000 nM. Work on `O=C(O)c1ccc2c(C3CCCC3)c(-c3ccccn3)[nH]c2c1` [compound 145] yielded an IC50 greater than 1000 nM. `Cn1c(-c2ccc(Cl)cn2)c(C2CCCC2)c2ccc(C(=O)O)cc21` [compound 144] gave an IC50 greater than 1000 nM. Molecule `COC(=O)c1ccc2c(C3CCCCC3)c(-c3ccoc3)n(CC(=O)O)c2c1` [compound 114] has an IC50 greater than 1000 nM. `O=C(O)c1ccc2c(C3CCCCC3)c(-c3ccsc3)[nH]c2c1` [compound 104] was tested, and the IC50 was greater than 1000 nM. Work on `Cn1c(-c2ccc(Br)cn2)c(C2CCCC2)c2ccc(C(=O)O)cc21` [compound 136] yielded an IC50 of 500 to 1000 nM. In the case of `O=C(O)Cn1c(-c2ccccn2)c(C2CCCCC2)c2ccc(C(=O)O)cc21` [compound 143], the IC50 is reported as 500 to 1000 nM. Molecule `CC(C(=O)O)n1c(-c2ccc(Br)cn2)c(C2CCCCC2)c2ccc(C(=O)O)cc21` (stereo not shown) [compound 146] has an IC50 greater than 1000 nM. Work on `O=C(O)c1ccc2c(C3CCCC3)c(-c3ccccn3)oc2c1` [compound 141] yielded an IC50 greater than 1000 nM. For `Cn1c(-c2cccc(N)n2)c(C2CCCC2)c2ccc(C(=O)O)cc21` [compound 113], the IC50 was less than 500 nM. Work on `O=C(O)Cn1c(-c2ccoc2)c(C2CCCCC2)c2ccc(C(=O)O)cc21` [compound 116] yielded an IC50 of less than 500 nM.

These molecules were tested on Huh7 cells that stably maintain a subgenomic HCV replicon (S22.3 cell-line) (assay: Cell based HCV RNA replication assay (S22.3 replicon cells, real-time RT-PCR)). Details: Hepatitis C virus, Huh-7, 72 h.
Description: Preparation of Test Compound
Application of Test Compound to Cells
Extraction of Total Cellular RNA
Quantification of Total Cellular RNA
`COC(=O)c1ccc2c(C3CCCCC3)c(-c3ccoc3)n(CC(=O)O)c2c1` [compound 114] was tested, and the EC50 was greater than 1000 nM.
